Assay results from US20240009143A1, “EXTRACTION OF SHIKONIN FROM ARNEBIA DECUMBENS ROOTS AND USE OF SHIKONIN DERIVATIVES FOR TREATING ULCERS” (KUWAIT UNIVERSITY, priority 2022, published 2024).

Assay: Absorbance of UVA & UVB
Type: physicochemical

change of absorbance of UVA & UVB compared with shikonin (Fraction E): decreased
Substance: shikonin-isovalerate [compound C]
